Test results from US10214520B2, “Substituted azaspiro(4.5)decane derivatives” (priority 2014, dated 2019).
pKi: −log10 of the molar value. Like-named read-outs stand apart in the source and are kept apart here.

Chains of the proteins cited; added tags and fusions are not shown. Lines headed by an entry give the natural chain unless they say otherwise; changes in a name come on top.
UniProt P41146: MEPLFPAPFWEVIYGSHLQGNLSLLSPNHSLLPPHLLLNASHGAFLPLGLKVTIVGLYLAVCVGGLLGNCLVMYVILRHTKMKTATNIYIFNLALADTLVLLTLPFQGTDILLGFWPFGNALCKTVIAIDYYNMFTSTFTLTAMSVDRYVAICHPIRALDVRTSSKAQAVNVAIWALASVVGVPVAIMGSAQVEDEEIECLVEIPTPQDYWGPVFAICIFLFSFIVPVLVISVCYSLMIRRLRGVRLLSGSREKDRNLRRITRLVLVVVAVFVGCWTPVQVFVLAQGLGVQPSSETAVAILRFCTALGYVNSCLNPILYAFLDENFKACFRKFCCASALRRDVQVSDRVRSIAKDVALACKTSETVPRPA
UniProt P35372, whole entry, looked up: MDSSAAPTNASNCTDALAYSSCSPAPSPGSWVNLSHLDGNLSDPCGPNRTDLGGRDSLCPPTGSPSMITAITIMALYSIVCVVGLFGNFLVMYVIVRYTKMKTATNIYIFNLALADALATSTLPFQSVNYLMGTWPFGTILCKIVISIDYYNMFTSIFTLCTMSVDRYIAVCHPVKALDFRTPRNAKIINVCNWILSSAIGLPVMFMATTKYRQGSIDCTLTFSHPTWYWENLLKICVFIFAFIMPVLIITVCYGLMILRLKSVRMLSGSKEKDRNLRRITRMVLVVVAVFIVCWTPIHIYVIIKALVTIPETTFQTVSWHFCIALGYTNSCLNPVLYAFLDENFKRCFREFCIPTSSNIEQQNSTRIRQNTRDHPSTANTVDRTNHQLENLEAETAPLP

What was measured:
ORL1 receptor = ORL1 receptor (Homo sapiens, UniProt P41146); details: for % inhibition (ORL1) [1 μM] / ORL1 % Inhibition @ 1 μM: test concentration 1 μM
human μ opiate receptor = human μ opiate receptor (Homo sapiens, UniProt P35372); experiment: μ opiate receptor binding assay with [3H]-naloxone, membrane preparation of CHO-K1 cells (WGA-SPA beads); details: for % inhibition (μ) [1 μM] / MOP % Inhibition @1 μM: test concentration 1 μM
[1] = read-out: Ki (ORL1) mean [μm], mean
[2] = read-out: Ki (μ) mean [μm], mean

## CN(C)C1(c2ccccc2)CCC2(CCN(C(=O)c3cccnc3)C2)CC1 (stereo not drawn)
ORL1 receptor; [1]
  pKi: 6.61
ORL1 receptor
  % inhibition (ORL1) [1 μM]: 35%
Human μ opiate receptor; [2]
  pKi: 6.41
Human μ opiate receptor
  % inhibition (μ) [1 μM]: 51%

## CN(C)[C@]1(c2ccccc2)CC[C@]2(CC1)CC(=O)N(CC(=O)NCC1CC1)C2
ORL1 receptor; read-out: ORL1 Ki
  pKi: 8.70
ORL1 receptor
  ORL1 % Inhibition @ 1 μM: 95%
Human μ opiate receptor; read-out: MOP Ki
  pKi: 8.92
Human μ opiate receptor
  MOP % Inhibition @1 μM: 101%

## CN(C)[C@]1(c2ccccn2)CC[C@]2(CC1)CC(=O)N(CCCC(N)=O)C2
ORL1 receptor
  ORL1 % Inhibition @ 1 μM: 11%
Human μ opiate receptor
  MOP % Inhibition @1 μM: 31%

## CN(C)[C@]1(c2ccccc2)CC[C@@]2(CC1)CC(=O)N(c1ccc(F)cn1)C2
ORL1 receptor; read-out: ORL1 Ki
  pKi: 6.93
Human μ opiate receptor; read-out: MOP Ki
  pKi: 7.05

## CN(C)C1(c2cccs2)CCC2(CCN(C(=O)n3ccnc3)C2)CC1 (stereo not drawn)
ORL1 receptor; [1]
  pKi: 7.33
ORL1 receptor
  % inhibition (ORL1) [1 μM]: 81%
Human μ opiate receptor; [2]
  pKi: 7.71
Human μ opiate receptor
  % inhibition (μ) [1 μM]: 96.5%

## CN(C)C1(c2ccccc2)CCC2(CC1)CC(=O)N(CCC(C)(C)C(=O)NCc1ccncc1)C2 (stereo not drawn)
ORL1 receptor; read-out: ORL1 Ki
  pKi: 7.56
ORL1 receptor
  ORL1 % Inhibition @ 1 μM: 93%
Human μ opiate receptor; read-out: MOP Ki
  pKi: 7.50
Human μ opiate receptor
  MOP % Inhibition @1 μM: 96%

## CN(C)C(=O)CNC(=O)C(C)(C)CCN1C[C@]2(CC[C@@](c3ccccc3)(N(C)C)CC2)CC1=O
ORL1 receptor; read-out: ORL1 Ki
  pKi: 6.78
ORL1 receptor
  ORL1 % Inhibition @ 1 μM: 60%
Human μ opiate receptor; read-out: MOP Ki
  pKi: 6.79
Human μ opiate receptor
  MOP % Inhibition @1 μM: 85%

## Cc1ccc(C2(N(C)C)CCC3(CCN(c4ccccc4)C3)CC2)s1 (stereo not drawn)
ORL1 receptor; [1]
  pKi: 7.73
ORL1 receptor
  % inhibition (ORL1) [1 μM]: 63%
Human μ opiate receptor; [2]
  pKi: 8.16
Human μ opiate receptor
  % inhibition (μ) [1 μM]: 89%

## Cis-4-[8-Dimethylamino-8-(3-methoxy-propyl)-3-oxo-2-azaspiro[4.5]decan-2-yl]-2,2-dimethyl-butyramide 2,2,2-trifluoro acetate
ORL1 receptor
  ORL1 % Inhibition @ 1 μM: 1%
Human μ opiate receptor; read-out: MOP Ki
  pKi: 5.55
Human μ opiate receptor
  MOP % Inhibition @1 μM: 32%

## CN(C)[C@]1(c2ccccc2)CC[C@]2(CC1)CC(=O)N(CCCNC(=O)Cc1ccon1)C2
ORL1 receptor; read-out: ORL1 Ki
  pKi: 7.27
Human μ opiate receptor; read-out: MOP Ki
  pKi: 7.25

## CN(C)C1(c2ccccc2)CCC2(CCN(C(=O)CCCc3ccncc3)C2)CC1 (stereo not drawn)
ORL1 receptor; read-out: ORL1 Ki
  pKi: 8.21
ORL1 receptor
  ORL1 % Inhibition @ 1 μM: 76%
Human μ opiate receptor; read-out: MOP Ki
  pKi: 8.00
Human μ opiate receptor
  MOP % Inhibition @1 μM: 100%

## CN(C)C1(c2ccccc2)CCC2(CCN(C(=O)CC(N)=O)C2)CC1 (stereo not drawn)
ORL1 receptor; read-out: ORL1 Ki
  pKi: 6.08
ORL1 receptor
  ORL1 % Inhibition @ 1 μM: 54%
Human μ opiate receptor; read-out: MOP Ki
  pKi: 6.43
Human μ opiate receptor
  MOP % Inhibition @1 μM: 78%

## CN(C)C1(c2ccccc2)CCC2(CC1)CC(=O)N(CCC1(C(=O)OC(C)(C)C)CCS(=O)(=O)CC1)C2 (stereo not drawn)
ORL1 receptor; read-out: ORL1 Ki
  pKi: 6.85
ORL1 receptor
  ORL1 % Inhibition @ 1 μM: 54%
Human μ opiate receptor; read-out: MOP Ki
  pKi: 8.85
Human μ opiate receptor
  MOP % Inhibition @1 μM: 100%

## CN(C)C1(CC2CCCC2)CCC2(CCN(C(=O)c3ccccc3)C2)CC1 (stereo not drawn)
ORL1 receptor; [1]
  pKi: 6.89
ORL1 receptor
  % inhibition (ORL1) [1 μM]: 64%
Human μ opiate receptor; [2]
  pKi: 7.77
Human μ opiate receptor
  % inhibition (μ) [1 μM]: 99.5%

## CN(C)C1(CC2CCCCC2)CCC2(CCN(C(=O)c3ccccc3)C2)CC1 (stereo not drawn)
ORL1 receptor; [1]
  pKi: 6.74
ORL1 receptor
  % inhibition (ORL1) [1 μM]: 55.5%
Human μ opiate receptor; [2]
  pKi: 8.31
Human μ opiate receptor
  % inhibition (μ) [1 μM]: 96.33%

## Cc1ccc(C2(N(C)C)CCC3(CCN(C(=O)c4ccncc4)C3)CC2)s1 (stereo not drawn)
ORL1 receptor; [1]
  pKi: 6.47
ORL1 receptor
  % inhibition (ORL1) [1 μM]: 39%
Human μ opiate receptor; [2]
  pKi: 7.01
Human μ opiate receptor
  % inhibition (μ) [1 μM]: 67.5%

## CN(C)[C@]1(c2ccccc2)CC[C@]2(CC1)CC(=O)N(CCC(C)(C)C(=O)Nc1cncnc1)C2
ORL1 receptor; read-out: ORL1 Ki
  pKi: 7.71
ORL1 receptor
  ORL1 % Inhibition @ 1 μM: 85%
Human μ opiate receptor; read-out: MOP Ki
  pKi: 8.24
Human μ opiate receptor
  MOP % Inhibition @1 μM: 98%

## COC(=O)C(C)(C)CCN1C[C@]2(CC[C@@](c3ccccc3)(N(C)C)CC2)CC1=O
ORL1 receptor; read-out: ORL1 Ki
  pKi: 8.07
ORL1 receptor
  ORL1 % Inhibition @ 1 μM: 95%
Human μ opiate receptor; read-out: MOP Ki
  pKi: 8.85
Human μ opiate receptor
  MOP % Inhibition @1 μM: 98%

## COc1cnc(N2C[C@]3(CC[C@](c4ccccc4)(N(C)C)CC3)CC2=O)cn1
ORL1 receptor; read-out: ORL1 Ki
  pKi: 6.59
Human μ opiate receptor; read-out: MOP Ki
  pKi: 5.70

## CNC(=O)CNC(=O)C(C)(C)CCN1CC2(CCC(c3ccccc3)(N(C)C)CC2)CC1=O (stereo not drawn)
ORL1 receptor; read-out: ORL1 Ki
  pKi: 7.37
ORL1 receptor
  ORL1 % Inhibition @ 1 μM: 81%
Human μ opiate receptor; read-out: MOP Ki
  pKi: 6.83
Human μ opiate receptor
  MOP % Inhibition @1 μM: 88%

## CN(C)[C@]1(c2ccccc2)CC[C@]2(CC1)CC(=O)N(c1cnc(C(F)(F)F)nc1)C2
ORL1 receptor; read-out: ORL1 Ki
  pKi: 8.66
Human μ opiate receptor; read-out: MOP Ki
  pKi: 8.70

## CN(C)[C@]1(c2ccccc2)CC[C@]2(CC1)CC(=O)N(CCC(C)(C)C(=O)NCCC(C)(C)O)C2
ORL1 receptor; read-out: ORL1 Ki
  pKi: 6.43
ORL1 receptor
  ORL1 % Inhibition @ 1 μM: 49%
Human μ opiate receptor; read-out: MOP Ki
  pKi: 7.24
Human μ opiate receptor
  MOP % Inhibition @1 μM: 85%

## CN(C)C1(c2ccccc2)CCC2(CCN(C(=O)c3ccccn3)C2)CC1 (stereo not drawn)
ORL1 receptor; [1]
  pKi: 6.66
ORL1 receptor
  % inhibition (ORL1) [1 μM]: 37.5%
Human μ opiate receptor; [2]
  pKi: 6.80
Human μ opiate receptor
  % inhibition (μ) [1 μM]: 70.5%

## Cis-3-(8-Dimethylamino-3-oxo-8-pyridin-2-yl-2-azaspiro[4.5]decan-2-yl)-2,2-dimethyl-propionamide 2,2,2-trifluoro acetate
ORL1 receptor; read-out: ORL1 Ki
  pKi: 6.25
ORL1 receptor
  ORL1 % Inhibition @ 1 μM: 35%
Human μ opiate receptor; read-out: MOP Ki
  pKi: 6.19
Human μ opiate receptor
  MOP % Inhibition @1 μM: 53%

## CN(C)[C@]1(c2ccccc2)CC[C@]2(CC1)CC(=O)N(c1ccccc1C#N)C2
ORL1 receptor; read-out: ORL1 Ki
  pKi: 6.72
ORL1 receptor
  ORL1 % Inhibition @ 1 μM: 47%
Human μ opiate receptor; read-out: MOP Ki
  pKi: 7.81
Human μ opiate receptor
  MOP % Inhibition @1 μM: 96%

## CN(C)[C@]1(c2ccccc2)CC[C@]2(CC1)CC(=O)N(CC(C)(C)C(=O)O)C2
ORL1 receptor; read-out: ORL1 Ki
  pKi: 6.36
ORL1 receptor
  ORL1 % Inhibition @ 1 μM: 36%
Human μ opiate receptor; read-out: MOP Ki
  pKi: 6.37
Human μ opiate receptor
  MOP % Inhibition @1 μM: 66%
